# Measured values from patent US20070191426A1, “Derivatives of 3-aminocarbonylquinoline, pharmaceutical compositions containing them and processes and intermediates for their preparation” (priority 2003, published 2007).
# Protein sequences, listed by entry. Tags and fused reporters are not part of them. Residues count along the entry.
# UniProt Q07343, 1-564 isoform 2: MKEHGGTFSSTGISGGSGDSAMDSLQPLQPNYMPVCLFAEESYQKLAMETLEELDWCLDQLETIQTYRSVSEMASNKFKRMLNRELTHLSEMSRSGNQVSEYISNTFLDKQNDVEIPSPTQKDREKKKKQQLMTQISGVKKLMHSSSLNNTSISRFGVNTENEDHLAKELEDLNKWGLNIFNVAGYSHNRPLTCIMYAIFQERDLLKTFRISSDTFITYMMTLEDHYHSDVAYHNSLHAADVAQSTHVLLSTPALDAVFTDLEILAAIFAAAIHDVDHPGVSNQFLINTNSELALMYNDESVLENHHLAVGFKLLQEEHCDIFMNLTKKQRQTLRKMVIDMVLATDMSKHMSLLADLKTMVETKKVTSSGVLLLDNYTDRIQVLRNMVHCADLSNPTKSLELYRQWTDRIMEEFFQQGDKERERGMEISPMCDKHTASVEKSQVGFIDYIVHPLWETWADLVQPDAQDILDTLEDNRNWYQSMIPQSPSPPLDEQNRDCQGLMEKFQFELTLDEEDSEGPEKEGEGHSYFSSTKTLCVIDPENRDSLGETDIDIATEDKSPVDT
# How the values were obtained:
# [1] = biological target: PDE4B (human recombinant) (Homo sapiens, UniProt Q07343); assay: Inhibition of PDE4B activity: IMAP Fluorescence Polarization (FP) assay; details: FP assay (Example 60)
# [2] = biological target: PDE5 (human recombinant) (Homo sapiens, UniProt O76074); assay: Inhibition of PDE5 activity: radioactive Scintillation Proximity Assay (SPA); details: SPA assay (all Examples)
# Excerpt: Human recombinant PDE5 is disclosed in K. Loughney et al., “Isolation and characterization of cDNAs encoding PDE5A, a human cGMP-binding, cGMP-specific 3′,5′-cyclic nucleotide phosphodiesterase”, Gene, 1998, 216, 139-147.
# Inhibition of PDE3, PDE4B, PDE4D, PDE5 or PDE6 Activity: Radioactive Scintillation Proximity Assay (SPA)
# The ability of compounds to inhibit catalytic activity at PDE4B or 4D (human recombinant), PDE3 (from bovine aorta) PDE5 (human recombinant) or PDE 6 (from bovine retina) was may be determined by Scintillation Proximity Assay (SPA) in 96-well format. Test compounds (preferably as a solution in DMSO, e.g. 2 microlitre (μl) volume) were preincubated at ambient temperature in Wallac Isoplates (code 1450-514) with PDE enzyme in 50 mM Tris-HCl buffer pH 7.5, 8.3 mM MgCl2, 1.7 mM EGTA, 0.05% (w/v) bovine serum albumin for 10-30 minutes. The enzyme concentration was adjusted so that control rates are linear over the assay incubation period. […] Bound radioactive product was measured using a WALLAC TRILUX 1450 MicroBeta scintillation counter. […] Curves were analyzed using ActivityBase and XLfit (ID Business Solutions Limited, 2 Ocean Court, Surrey Research Park, Guildford, Surrey GU2 7QB, United Kindgom). Results were expressed as pIC50 values.
smiles,measurement,setting,value
CCOC(=O)C1CCN(C(=O)c2cc(C)c3ncc(C(N)=O)c(Nc4ccc(F)c(OC)c4)c3c2)CC1,PDE4B mean pIC50,[1],9.0
same,PDE5 mean pIC50,[2],4.5
